## Apparent affinities of Ab-14 variants for a coronavirus HR2 peptide

From the AlphaSeq antibody data of Li et al. 2023 (doi:10.1038/s41467-023-39022-2), copy in the FLAb collection.

Binding partner: SARS-CoV-2 spike HR2 peptide, sequence PDVDLGDISGINAS.

Ab-14 is the parent antibody, in scFv form: VH, then a (GGGGS)3 linker, then VL. The light chain is unchanged in all variants.
VH: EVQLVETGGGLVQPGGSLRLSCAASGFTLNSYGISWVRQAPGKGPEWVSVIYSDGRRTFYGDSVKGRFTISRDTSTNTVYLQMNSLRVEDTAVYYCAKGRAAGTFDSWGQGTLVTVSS
VL: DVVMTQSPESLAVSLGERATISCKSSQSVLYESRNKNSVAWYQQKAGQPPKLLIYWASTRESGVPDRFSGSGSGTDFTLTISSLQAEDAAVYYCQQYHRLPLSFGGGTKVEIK

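The parent was found by panning a naive human phage display library on the peptide. This is the validation round: designs drawn from the data on random variants, tested in the same kind of assay. Group labels follow the data file (Ctrl: baseline library sampled from a position-specific scoring matrix, with some repeated check sequences; En: ensemble of fine-tuned language models; GP: Gaussian process model; GPLM: also part of the Gaussian process libraries; HC: hill climbing; Gen: genetic algorithm; Gibbs: Gibbs sampling; a sequence that several methods proposed may carry one label only). AlphaSeq pools MATa yeast showing the antibodies with MATalpha yeast showing the peptide. Mating (16 h, 30 °C) was followed by selection of diploids and sequencing of their barcodes. A regression on co-assayed BCL2-family reference pairs converts the normalised counts of each replicate to an apparent Kd. Mating was done six times.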

Variants are written as CDR1, CDR2 and CDR3 of the heavy chain (limits as in the source). Parent: GFTLNSYGIS, VIYSDGRRTFYGDSVK, GRAAGTFDS. Affinities are written as log10 Kd with Kd in nM; a lower number is a better binder. Averages over replicates are reported, and they cover detected replicates only. A pair that was not seen in that replicate is written "nd"; this usually means weak binding, but a binder can also be missed. Order: sorted from the lowest average up, undetected variants last. In the paper, a design with two or fewer of six values counts as a poor binder. A sequence that the file lists under several names has all its replicates listed entry by entry, parted by semicolons. Nonspecific signal, from three strains lacking the peptide, appeared in 1% of pairings of all heavy chain designs, centred on 2.08 (5% of these signals below 0.84); values are not corrected for it. A sequence measured in both rounds can read differently, since the two assays cover different ranges. Of ten entries with the parent sequence, four were seen in most replicates (averages 0.34 to 2.37), three in one and three in none, so single entries are noisy.

With GFDLNEYGIS, VIYADGSRTAYADSVK, GQTAGTFDV [En_Gen] the result was -1.27, -1.44, -1.70, -1.90, -2.13, -0.68 (mean -1.52).
With GFDLNEYGIS, VIYADGKRTAYANDVK, GEVAGTFDV [En_Gen] the result was -0.59, -0.81, -1.07, -1.24, -1.36, -0.80 (mean -0.98).
With GFDLNEYGIS, VIYADGMRTAYADDVK, GNTAGTFDL [En_Gen] the result was -0.60, -0.26, -0.87, -1.23, 0.11, -0.99 (mean -0.64).
With GFDLNEYGIS, VIYADGQRTFYADSVK, GQAAGTFDM [En_HC] the result was -0.41, -0.60, -0.52, -0.60, -0.59, -0.44 (mean -0.53).
With GFDLNEYGIS, VIYADGVRKAYADSVK, GSNAGTFDV [En_Gen] the result was -0.53, -0.38, -0.45, -0.70, -0.56, -0.31 (mean -0.49).
With GFELNSYGIS, VIYADGRRTFYGDSVK, GRLAGTFDS [GP_Gen] the result was -0.28, -0.23, -0.46, -0.84, -0.45, -0.07 (mean -0.39).
With GFDLNEYGIS, VIYADGERTAYADSVK, GNVAGTFDV [En_Gen] the result was -0.42, -0.35, -0.44, -0.33, -0.51, -0.26 (mean -0.39).
With GFSLNSYGIS, VIYADGRRTFYGDSVK, GQAAGTFDR [GP_Gen] the result was -0.24, -0.41, -0.52, -0.39, -0.46, -0.25 (mean -0.38).
With GFDLNEYGIS, VIYADGKRTAYADNVK, GEVAGTFDQ [En_Gen] the result was -0.08, -0.31, -0.63, -0.10, -0.09, -0.41 (mean -0.27).
With GFDLNEYGIS, VIYADGVRTFYADSVK, GENAGTFDM [En_Gen] the result was -0.07, -0.03, -0.27, 0.06, -0.49, -0.21 (mean -0.17).
With GFDLNEYGIS, VIYADGQRTAYADSVK, GEVAGTFDM [En_Gen] the result was nd, -0.15, -0.27, 0.19, nd, -0.41 (mean -0.16).
With GFDLDEYGIS, VIYADGMRTAYTDSVK, GEAAGTFDA [En_HC] the result was 0.38, 0.09, -0.42, 0.29, 0.03, -0.42 (mean -0.01).
With GFNLNDYGIS, VIYSDGRRTAYGDSVK, GRAAGTFDS [Ctrl] the result was 0.60, -0.02, -0.44, -0.15, 0.35, -0.26 (mean 0.01).
With GFDLDEYGIS, VIYADGMRTAYTDSVK, GNQAGTFDM [En_Gen] the result was 0.20, 0.24, 0.10, 0.02, -0.28, -0.01 (mean 0.04).
With GFTLNDYGIS, VIYSDGRRTFYIDSVK, GNAAGTFDS [GPLM_Gen] the result was 0.25, 0.25, 0.09, -0.22, 0.31, 0.17 (mean 0.14).
With GFDLDEYGIS, VIYADGMRTAYSDSVK, GENAGTFDM [En_Gen] the result was 0.34, 0.00, 0.10, 0.24, 0.38, 0.35 (mean 0.24).
With GFLLNSYGIS, VIYADGRRTFYGDSVK, GQAAGTFDS [GPLM_Gen] the result was 0.35, 0.30, 0.15, 0.28, -0.01, 0.39 (mean 0.24).
With GFNLNSYGIS, VIYSDGRRTFYIDMVK, GQAAGTFDS [GP_Gibbs] the result was nd, nd, nd, nd, 0.34, nd.
With GFDLNSYGIS, VIYSDGRRTFYGDSVK, GRTAGTFDN [GPLM_Gibbs] the result was 0.37, 0.19, 0.44, 0.49, 0.33, 0.31 (mean 0.36).
With GFDLNSYGIS, VIYSDGRRTAYGDSVK, GRQAGTFDS [GP_Gen] the result was 0.09, 0.02, 0.96, 0.77, 0.34, 0.43 (mean 0.44).
With GFSLDEYGIS, VIYADGRRTFYADSVK, GNSAGTFDF [En_HC] the result was -0.01, 0.86, 1.55, -0.02, 0.25, nd (mean 0.53).
With GFELNSYGIS, VIYSDGRRTFYGDDVK, GSTAGTFDD [GP_Gibbs] the result was 0.87, 0.64, 0.42, 0.32, 0.45, 0.55 (mean 0.54).
With GFTLNSYGIS, VIYSDGRRTFYIDSVK, GEAAGTFDS [GPLM_Gen] the result was 0.75, 0.13, 0.36, 0.69, 1.05, 0.32 (mean 0.55).
With GFDLNQYGIS, VIYSDGRRTFYGDSVK, GRQAGTFDS [GP_Gibbs] the result was 0.77, 0.45, 1.11, 0.22, 0.36, 0.88 (mean 0.63).

The remaining entries, values ahead:

Read-out 0.69, 0.76, 0.12, 1.39, 0.04, 1.38 (mean 0.73), from GFTLNSYGIS, VIYSDGRRTFYTDSVK, GKVAGTFDS [GPLM_Gibbs].
Read-out 1.31, 0.87, 1.25, 1.52, 0.95, 0.85 (mean 1.12), from GFTLNSYGIS, VIYSDGRRTFYGDSVK, GRVAGTFDV [GPLM_Gen].
Read-out 2.56, 2.35, 1.77, 0.83, 1.28, 1.90; nd, -0.45, 0.18, 0.74, nd, 0.26 (mean 1.14), from GFSLNSYGIS, VIYSDGRRTFYGDSVK, GRQAGTFDS [Ctrl+GPLM_Gen].
Read-out 3.27, nd, nd, nd, nd, nd; 0.79, 1.10, 0.96, 0.24, nd, 0.86; nd, nd, nd, nd, nd, nd; 1.79, 1.89, 1.56, nd, 2.36, nd (mean 1.48), from GFTLNSYGIS, VIYSDGRRTFYGDEVK, GRLAGTFDL [Ctrl].
Read-out 1.78, 1.83, 1.76, 1.51, 1.55, 1.43 (mean 1.64), from GFTLNSYGIS, VIYSDGKRTFYGDSVK, GRAAGTFDS [Ctrl].
Read-out 1.76, 1.38, nd, nd, nd, 2.12 (mean 1.75), from GFSLNSYGIS, VIYSDGRRTFYADMVK, GEAAGTFDK [GP_Gibbs].
Read-out 1.97, 2.61, 2.11, 0.99, 1.51, nd (mean 1.84), from GFNLNEYGIS, VIYADGMRASYRNDVK, GNISGDFML [En_Gibbs].
Read-out nd, nd, nd, 1.88, nd, nd, from GFDLGEYGIS, VIYADGVRKSYAQKVK, GKNGAISSV [En_Gibbs].
Read-out 2.05, 0.78, nd, nd, 3.18, nd (mean 2.00), from GFTLNKYGIS, VIYSDGRRTFYSDSVK, GRVAGTFSS [Ctrl].
Read-out 2.78, 2.14, 1.84, nd, nd, nd (mean 2.25), from GFTLNSYGIS, VIYSDGRRTQYGDSVK, GRQAGTFDS [Ctrl].
Read-out nd, 2.45, 2.34, nd, nd, 2.72 (mean 2.50), from PFDLNSYGIS, VIYSDGRRTFYADSVK, GNAAGTFDS [GP_Gen].
Read-out nd, nd, nd, nd, nd, nd, from GFNIDEYGIS, VIYADGKRSMYADKVK, GVDADTMMD [En_Gibbs].
Read-out nd, nd, nd, nd, nd, nd, from GFDINEMGIS, VIYADGQRLFYAQEVK, GENTGTFDM [En_Gibbs].
Read-out nd, nd, nd, nd, nd, nd, from GFTLNSYGIS, VIYSDGRRTFYADSVK, GNAAGTFDS [GPLM_Gen].
Read-out nd, nd, nd, nd, nd, nd, from RFGLNEYGIS, VIYSDGRRTFYGDEVK, GRAAGTFDL [Ctrl].
Read-out nd, nd, nd, nd, nd, nd, from GFQLDEYGIS, VIYADGLRTVYDDAVK, GSDTGLFMI [En_Gibbs].
Read-out nd, nd, nd, nd, nd, nd, from GFDLDQYGIS, VIYADGMRAGYADSVK, GHWGGKFLV [En_Gibbs].
Read-out nd, nd, nd, nd, nd, nd, from GFTLNSYGIS, VIYSDGRRTFYGDSVK, GRRAGTFDW [Ctrl].
Read-out nd, nd, nd, nd, nd, nd, from GFPLNSYGIS, VIYSDGRRTFYADSVK, GMLAGTFDS [GP_HC].
Read-out nd, nd, nd, nd, nd, nd, from GFDLDEMGIS, VIYADGRRVYYTDKVK, GANGVDIKL [En_Gibbs].
Read-out nd, nd, nd, nd, nd, nd, from GFTLNKYGIS, VIYSDGRRTFYGDEVK, GRLAGTFDS [Ctrl].
Read-out nd, nd, nd, nd, nd, nd, from GFLLDEYGIS, VIYADGQRTAYTDDVK, GYVGGIGTI [En_Gibbs].
Read-out nd, nd, nd, nd, nd, nd, from GFTLNEYGIS, VIYSDGRRTFYHDSVK, GRAAGQFDS [GP_HC].
Read-out nd, nd, nd, nd, nd, nd, from GFTLNDYGIS, VIYSDGKRTFYQDSVK, GRAAGTFPS [Ctrl].

3 of these entries, quoted again:

CDR-H1,CDR-H2,CDR-H3,group,"replicates, log10 nM","log10 Kd (nM), mean"
GFTLNSYGIS,VIYSDGKRTFYGDSVK,GRAAGTFDS,Ctrl,"1.78, 1.83, 1.76, 1.51, 1.55, 1.43",1.64
RFGLNEYGIS,VIYSDGRRTFYGDEVK,GRAAGTFDL,Ctrl,"nd, nd, nd, nd, nd, nd",nd
GFTLNEYGIS,VIYSDGRRTFYHDSVK,GRAAGQFDS,GP_HC,"nd, nd, nd, nd, nd, nd",nd